Screening results deposited in PubChem BioAssay by National Center for Advancing Translational Sciences (NCATS).
ClpP mod: qHTS Assay for Activators of ClpP | ATP-dependent Clp protease proteolytic subunit (Bacillus subtilis (strain 168)), P80244 | purified B. subtilis ClpP, FRET peptide cleavage, 20 min | Potency, µM (titrated, usually from 57.5 µM), inactives show at the highest dose activity change, negative = active | 340,000 tested, 1.9% active | AID 651965, 2013; active means well fitted falling curve with a large enough effect; inconclusive means small, poorly fitted or top-dose-only effect; inactive means no such curve, though single readings can be large or run the other way; further: potency means the concentration at half of the fitted maximal effect; the source files actives as falling curves though it sought activators and does not explain the sign; nearly all actives have a fitted effect of over 65% in size
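ClpP 10 microg/mL final, pH 8 Tris/KCl buffer with BSA, glycerol, Tween-20; compound pinned in; FRET-FV substrate; RT 20 min; Ex320/Em430; ΔFRET vs ADEP 5.8 microM, DMSO, no enzyme.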
TrxR1 substrate: rat thioredoxin reductase 1 substrate activity | Potency, µM (doses to about 114 µM), without a hit: top-dose activity change, negative = substrate turnover | O89049 | 390,000 tested, 0.01% active | purified TrxR1 substrate turnover, NADPH consumption readout; further: potency means the concentration at half of the fitted maximal effect; on the % scale 0 is the no-effect control and ±100 the full control effect; nearly all actives have a fitted effect of over 50% in size
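Rat TrxR1, dispensed at 90 nM, was prereduced with 400 uM NADPH (final) for 5 min at ~22 deg C, then incubated with compound 15 min before 400 uM selenite. A first-read NADPH fluorescence drop versus no-compound background flagged substrates.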
miR-21 reporter: miR-21 reporter, rising signal | AID 2288 | HeLa miR-21 FLuc reporter, luciferase, 48 h | 340,000 tested, under 10 active | Potency, µM (doses to about 38.3 µM), for inactives: at the top dose reporter change, positive = more light; active = well fitted rising curve with a large enough effect; inconclusive = small, poorly fitted or top-dose-only effect; inactive = no such curve, though single readings can be large or run the other way;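 note: % of control where 0% means no effect; miR-21 action dims this reporter so a rising signal means less miR-21 action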
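HeLa cells stably expressing CMV-driven firefly luciferase with a downstream miR-21 binding sequence, endogenously expressing miR-21, were treated with titrations (up to about 40uM final) for 48 hours at 37 degree Celsius. Luciferase luminescence was read after lysis.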
Anesthetic bind: candidate novel general anesthetic via apoferritin binding; P02791; apoferritin/1-aminoanthracene competitive binding, fluorescence; Potency, µM (top dose mostly 77.5 µM), inactives show top-dose activity change, negative = displacement, most hits filed as inhibitors; 350,000 tested, 0.074% active; AID 485281; further: potency means the concentration at half of the fitted maximal effect; on the % scale 0 is the no-effect control and ±100 the full control effect; nearly all actives have a fitted effect of over 20% in size
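Horse-spleen apoferritin (10 uM) in 50% saturated 1-aminoanthracene in PBS was incubated 10 min at room temperature with compound. Fluorescence (ex 380, em 535 nm) was normalized to free and bound 1-AMA, with concentration-response fitted by a four-parameter Hill equation.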
TrxR1 inh: blocks rat thioredoxin reductase 1. AID 588453. O89049. recombinant rTrxR1, NADPH fluorescence consumption, selenite substrate. Potency, µM (series often up to 114 µM), for the others: at the highest dose activity change, negative = inhibition, actives largely listed as inhibitors. 390,000 tested, 1% active; further: potency means the concentration at half of the fitted maximal effect; on the % scale 0 is the no-effect control and ±100 the full control effect; nearly all actives have a fitted effect of over 65% in size
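Rat TrxR1 (90 nM in the dispensed reagent) was pre-reduced with 400 uM NADPH for 5 min at room temperature, then incubated with compound for 15 min. After 400 uM selenite was added, NADPH fluorescence (Ex 340/Em 450 nm) was followed for 8 min.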
An asterisk follows results filed as active; ? = inconclusive; / = not tested or not shown; [ ] = another dose, or the depositor's remark. Compounds with a hit are over-represented: about 2.5% of the library has one in this group of screens. Unless noted, the call rests on the fitted dose curve; in most records, active means well fitted curve in the direction sought with a large enough effect; inconclusive means small, poorly fitted or top-dose-only effect, or another doubt; inactive means no such curve, though single readings can be large; an effect the other way counts as inactive or inconclusive.

cpd	canonical_smiles	ClpP mod	TrxR1 substrate	miR-21 reporter
1	Cc1ccccc1-c1cc2nc(C)c(C)c(=O)n2[nH]1	29.1%	29.9%[57.1 µM]	-32.1%
2	Cc1nc2cc(-c3cccs3)[nH]n2c(=O)c1C	14.1µM*	37.0%	/
3	C=CCOC(=O)C1=C(C)NC(C)=C(C(=O)OCC=C)C1c1ccc(O)cc1	22.4µM*	0.4%	-6.7%
4	CCCC(=O)c1c[nH]c(C(=O)NCCCN2CCOCC2)c1	25.1µM*	-11.0%	0.2%
5	Cc1c(Br)cc(C(=O)NCCCN2CCOCC2)c(C)c1C	15.8µM*	-9.1%	-5.4%
6	O=C(NCCCN1CCOCC1)c1cc(-c2cccs2)on1	-11.2%	-4.3%[57.1 µM]	-71.8%
7	Cc1ccc(Cl)cc1N1CCN(C(=O)Cn2cnc3sc(C)c(S(=O)(=O)N4CCC(C)CC4)c3c2=O)CC1	2.8%	2.5%	?
8	C=CCNc1nc(NCCOC)c2sc(-c3ccccc3)cc2n1	-23.1%	/	/

cpd	Anesthetic bind	TrxR1 inh
1	-4.7%	12.4%[57.1 µM]
2	/	-3.7%
3	4.2%	1.3%
4	-7.1%	-15.4%
5	-3.2%	-15.4%
6	-8.0%	15.8µM*
7	-16.2%	15.5%
8	/	/

Remaining list, next part:
cpd	canonical_smiles	ClpP mod	TrxR1 substrate	miR-21 reporter
9	C=CCNc1nc(NCCOc2ccccc2Cl)c2sc(-c3ccccc3)cc2n1	28.2µM*	/	/
10	c1ccc(OCCNc2nc(NCC3CC3)nc3cc(-c4ccccc4)sc23)cc1	25.1µM*	/	/
11	CCc1cccc(C)c1NC(=O)c1cnn(-c2ccc(OC)cc2)c1C1CCN(C(=O)OC(C)(C)C)CC1	0.9%	-0.7%	28.5%
12	Cc1nc2c(c(=O)n1CCC1=CCCCC1)c1nc3ccccc3nc1n2/N=C/c1ccco1	-11.8%	10.7%	-7.4%
13	CCCn1c(C)nc2c(c1=O)c1nc3ccccc3nc1n2CCC1=CCCCC1	31.6µM*	49.0%	-3.2%
14	O=C(c1ccco1)N1N=C(c2ccc(Br)cc2)CC1c1ccco1 (configuration not stated)	0.7%	2.1%	/
15	O=C(OCC(=O)N1N=C(c2ccc(Cl)cc2)CC1c1ccco1)c1cccnc1 (configuration not stated)	-7.3%	-0.2%	/
16	O=C(c1ccco1)N1N=C(c2ccc(Cl)cc2)CC1c1ccco1 (configuration not stated)	5.7%	-3.7%	-9.2%

cpd	Anesthetic bind	TrxR1 inh
9	/	/
10	/	/
11	?	18.5%
12	?	?
13	3.9%	-19.6%
14	/	10.4%
15	/	7.08µM*
16	-11.7%	39.8µM*

New compounds follow:
cpd	canonical_smiles	ClpP mod	TrxR1 substrate	miR-21 reporter
17	Cc1cc(NS(=O)(=O)c2ccc(NC(=O)C(C)Oc3ccc4c(C)cc(=O)oc4c3)cc2)no1 (configuration not stated)	25.1µM*	18.7%[57.1 µM]	-9.1%
18	CCOc1ccccc1N(CC(=O)NCCSCc1ccco1)S(=O)(=O)c1ccccc1	0.5%	-8.3%	2.2%
19	COc1ccc(OC)c(N(CC(=O)NCCSCc2ccco2)S(=O)(=O)c2ccccc2)c1	/	3.3%	4.0%
20	CCCSCCCNC(=O)C1CCN(C(=O)c2cnn(-c3ccccc3)c2-n2cccc2)CC1	-1.5%	-3.8%	14.8%
21	CCCN(C(=O)c1sc2nc3n(c(=O)c2c1C)CCCC3)c1ccccc1C	-2.0%	-8.0%	-4.9%
22	Brc1ccc(-c2nn3c(-c4ccco4)nnc3s2)o1	-2.0%	-0.6%[57.1 µM]	-23.9%
23	CC(NC(=O)Nc1cc(Cl)ccc1Cl)c1c(-n2cccc2)sc2c1CCCC2 (configuration not stated)	0.4%	-3.7%	-1.1%
24	COc1ccc(N(Cc2cccs2)C(=O)COc2cc(C)c(Cl)c(C)c2)cc1	1.5%	-10.4%	7.9%

cpd	Anesthetic bind	TrxR1 inh
17	-4.4%	11.3%[57.1 µM]
18	-8.4%	22.4µM*
19	2.9%	-33.8%
20	1.4%	1.5%
21	7.3%	1.7%
22	?	28.2µM*
23	2.8%	8.4%
24	101.1%	11.3%

Entries of single compounds, looked up by structure.
Profile of CCCSCCCNC(=O)C1CCN(C(=O)c2cnn(-c3ccccc3)c2-n2cccc2)CC1 → ClpP mod: -1.5%; TrxR1 substrate: -3.8%; miR-21 reporter: 14.8%; Anesthetic bind: 1.4%; TrxR1 inh: 1.5%
Profile of COc1ccc(OC)c(N(CC(=O)NCCSCc2ccco2)S(=O)(=O)c2ccccc2)c1 → ClpP mod: /; TrxR1 substrate: 3.3%; miR-21 reporter: 4.0%; Anesthetic bind: 2.9%; TrxR1 inh: -33.8%

New compounds follow.
cpd	canonical_smiles	ClpP mod	TrxR1 substrate	miR-21 reporter
25	O=C1/C(=C/C=C/c2ccccc2)Oc2c1ccc(O)c2CN1CCN(CCO)CC1	-12.0%	-0.9%	1.4%
26	CCN1CCN(Cc2c(O)ccc3c2O/C(=C\C=C\c2ccccc2)C3=O)CC1	-7.1%	7.1%[11.4 µM]	?
27	COc1ccccc1/C=C/C=C1\Oc2c(ccc(O)c2CN2CCN(CCO)CC2)C1=O	?	1.3%	-31.5%
28	CN(C)Cc1c(O)ccc2c1O/C(=C\C=C\c1ccccc1)C2=O	1.2%	-22.5%	-4.5%
29	COc1ccc(CCNC(=O)CSc2nc(-c3ccc(F)cc3)cc(C(F)(F)F)n2)cc1OC	1.4%	-3.2%	-3.5%
30	CC(C)N1CCc2c(sc(NC(=O)CCS(=O)(=O)c3ccccc3)c2C#N)C1	-4.8%	-7.0%	2.1%
31	COC(=O)c1c(NC(=O)CCS(=O)(=O)c2ccccc2)sc2c1CCN(C)C2	-5.4%	-1.4%	-1.7%
32	CCCN1CCc2c(sc(NC(=O)CCS(=O)(=O)c3ccccc3)c2C(=O)OC)C1	-1.6%	0.1%	4.1%

cpd	Anesthetic bind	TrxR1 inh
25	64.0%	?
26	-13.9%	14.0%
27	158.4%	25.1µM*
28	202.3%	79.4µM*
29	-3.9%	6.6%
30	8.2%	10µM*
31	-11.9%	?
32	-15.8%	50.1µM*

Other results
cpd	canonical_smiles	ClpP mod	TrxR1 substrate	miR-21 reporter
33	Cc1ccc(-c2noc(-c3ccc(NCC4CCCO4)c([N+](=O)[O-])c3)n2)cc1 (configuration not stated)	-0.2%	0.2%	-11.2%
34	C[C@@H](C(=O)NCc1ccccc1)[C@@H]1C[C@@]1(C)[C@@H](NC(=O)OCc1ccccc1)c1ccccc1	0.0%	-2.7%	12.3%
35	Cc1ccc(CNC(=O)[C@H](C)[C@H]2C[C@]2(C)[C@H](NC(=O)OCc2ccccc2)c2ccccc2)o1	-4.0%	-2.4%	8.2%
36	CCCCc1ccc(-n2nc3cc(C)c(NC(=O)c4ccc(C#N)cc4F)cc3n2)cc1	-2.5%	5.9%	-7.0%
37	O=C(/C=C/Nc1ccccc1)c1ccccc1	-0.5%	0.8%	-42.6%
38	O=C(/C=C/Sc1ccccc1)c1ccccc1	-16.0%	7.7%	?
39	O=C(/C=C/Sc1ccccc1)c1ccc(Cl)cc1	2.0%	-5.1%	10.7%
40	Cc1nnc(NC(=O)c2nc(S(=O)(=O)Cc3ccccc3)ncc2Cl)s1	0.7%	-1.4%	?

cpd	Anesthetic bind	TrxR1 inh
33	-7.7%	2.7%
34	-9.6%	0.4%
35	0.5%	56.2µM*
36	3.8%	17.1%
37	-10.8%	-2.3%
38	?	11.2µM*
39	-17.0%	39.8µM*
40	-0.6%	12.6µM*

(continued)
cpd	canonical_smiles	ClpP mod	TrxR1 substrate	miR-21 reporter
41	O=C(Nc1ccccc1F)c1nc(S(=O)(=O)Cc2ccccc2F)ncc1Cl	3.3%	10.3%	?
42	COc1ccc(OC)c(NC(=O)c2nc(S(=O)(=O)Cc3ccccc3)ncc2Cl)c1	/	-1.2%	-0.3%
43	Cc1cccc(C)c1NC(=O)c1nc(S(=O)(=O)Cc2ccccc2F)ncc1Cl	-0.6%	9.2%	/
44	COC(=O)c1ccccc1NC(=O)c1nc(S(=O)(=O)Cc2ccccc2F)ncc1Cl	0.3%	7.9%	-0.4%
45	Cc1c(C)n(Cc2ccccc2)c2ccc(C(=O)N3CCN(c4ccccc4F)CC3)cc12	-22.3%	0.3%[57.1 µM]	-7.9%
46	CCOCCCn1c(SCC(=O)Nc2ccccc2Cl)nc2c(oc3ccccc32)c1=O	-3.1%	-3.0%	4.3%

cpd	Anesthetic bind	TrxR1 inh
41	88.2%	1.58µM*
42	-7.8%	3.55µM*
43	/	4.47µM*
44	20.7%	?
45	-4.5%	13.7%[57.1 µM]
46	-6.8%	2.6%
